Binding of CDR-mutated scFvs to a peptide of the spike HR2 region

All variants were tested on one target, the spike HR2 peptide PDVDLGDISGINAS (SARS-CoV-2).

Parent scFv Ab-91: VL joined to VH by three GGGGS repeats. Changes lie in the heavy chain CDRs alone.
VL: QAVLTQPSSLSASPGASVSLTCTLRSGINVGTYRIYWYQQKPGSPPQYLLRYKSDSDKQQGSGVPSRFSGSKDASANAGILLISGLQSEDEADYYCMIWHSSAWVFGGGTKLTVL
VH: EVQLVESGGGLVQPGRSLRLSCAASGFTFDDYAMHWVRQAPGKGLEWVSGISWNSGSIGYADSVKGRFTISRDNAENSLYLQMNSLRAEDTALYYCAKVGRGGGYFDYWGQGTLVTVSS

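Phage display of a naive human antibody library on the peptide gave the parent. The library (AAYL51) carries one to three amino acid substitutions per variant, with no insertions or deletions. Affinity was read by AlphaSeq, a pooled yeast mating assay with surface-displayed partners. After mating in shaken culture at 30 °C for 16 h, diploids were selected and their barcode pairs sequenced. Scores were corrected for input abundance and mapped to Kd with protein pairs of known affinity run in the same pool. Mating was done three times.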

Variants are written as CDR1, CDR2 and CDR3 of the heavy chain (limits as in the source). Parent: GFTFDDYAMH, GISWNSGSIGYADSVK, VGRGGGYFDY. Affinities are written as log10 Kd with Kd in nM; a lower number is a better binder. Averages over replicates are reported, and they cover detected replicates only. "nd" marks a missing value. The strain was present, yet no cells mated with the target were sequenced in any replicate, which points to weak or no binding. For reference, the parent read 1.86 as the reference entry and 0.88 as a member of this library. As a blank, each scFv also met three strains without target: over library AAYL51, 21% of these pairings were detected, typically at 4.54 and seldom below 3.26.

log10 Kd (nM), mean	replicates with signal	CDR-H1	CDR-H2	CDR-H3
5.19	2/3	GFTFDDYAMH	GIEWNSYSIGYADSVK	VGRGGGYFDY
nd	0/3	GFTFDDHAMH	GISWNYGSIGYADVVK	VGRGGGYFDY
nd	0/3	GFTFDDYAMH	CISWNSGSIGYAMSVK	VGRGGQYFDY
nd	0/3	GFTFQPYAMH	GISWNSGSIGYADKVK	VGRGGGYFDY
4.42	1/3	GFCQDDYAMH	GISWNSGSIGYADSVK	VGRGGGYFDY
1.89	1/3	GFRFDDYAMH	GISKNSGSNGYADSVK	VGRGGGYFDY
3.68	3/3	GMTFDDYAMH	GISWNGGSIGYADSVK	PGRGGGYFDY
2.95	1/3	GFTFDDYAMH	GISWGSGSIGHADSVK	VGRGGGYEDY
2.08	3/3	GFTFDDYSMH	GISWNSGSIGYADSVK	VGRGGGNFDD
4.59	3/3	GFFFDDYAMH	GISWNSGSIGYAHSVK	VGRGGGAFDY
3.07	1/3	GFTFDDYAMH	GISWNSSSIGYTDSVK	VGRNGGYFDY
3.58	1/3	GFFFDDYAMH	GISWNQGSIGYADSVK	VGGGGGYFDY
5.08	2/3	GFTFDDPAMH	GITWNSGSCGYADSVK	VGRGGGYFDY
5.25	2/3	GFTFDDYAMD	GISWFSGSIVYADSVK	VGRGGGYFDY
4.94	3/3	GFTFMDYAWH	GISWNSGSIGYADPVK	VGRGGGYFDY
nd	0/3	GFTFDDYAMY	GISWNSGSIGYHDSVK	VGRGGGYFDD
nd	0/3	GFTFGDYAMH	GISWNSVWIGYADSVK	VGRGGGYFDY
4.42	2/3	GFTFDDYAML	GISWNSGSSGYADSVK	VGRGGGYFLY
nd	0/3	GFTFDDYAMH	GISANSGAIGYADSVK	VGRGSGYFDY
4.25	2/3	GFTFDMYAMQ	GISWNSGSVGYADSVK	VGRGGGYFDY
4.99	1/3	GWTFDDYAMH	GISWNSQSIGYADSWK	VGRGGGYFDY
nd	0/3	GFTFDCYSPH	GISWNSGSIGYADSVK	VGRGGGYFDY
nd	0/3	GFTFDDYAMH	WMSWNSGSIGYADSVK	TGRGGGYFDY
4.48	2/3	GFTFDDYAMH	GISWNSGSIGYADSVK	CNRGGGYFDY
nd	0/3	GFTFDDYEMH	GISLNSGSIGYADSVK	VGRHGGYFDY
nd	0/3	GFTFDDYAMH	GISWNSGSFMYADSVK	VGRGGGYFRY
nd	0/3	GFTFYDYAMH	GISWNSGSIGYADSVI	VGRGGGYFFY
nd	0/3	GFTKDDYAMH	GISWNSGSIGYADSVK	VSRGGGYTDY
3.38	1/3	CFTFDDYAMH	GISWNSGSIGYADSVK	VGRGGGCFDF
4.55	1/3	GFTFDDRAMH	GISWNSGEIGYADSVK	PGRGGGYFDY
0.48	3/3	GFHFDDYAMH	GISWNSGSIGYADSVK	VGRGGGLFDY
-0.15	3/3	GFAFDMYAMH	GISWNSGSIGYADSVK	IGRGGGYFDY
5.11	2/3	GFTFDDYAMH	GISWNSGSPGYADSVK	VGRGGVYFPY
2.01	3/3	GFTFDDYAMW	GISWNSGSIGIADSVK	VGRGGGYFNY
nd	0/3	GFTFDDYAMH	GISWNSGVIRYADSYK	VGRGGGYFDY
5.86	2/3	GFTFDHYAMH	GISWNSGSIHSADSVK	VGRGGGYFDY
nd	0/3	GFTADDYAMH	GISWNSGSIGYADSVK	RGRGGGYFDY
nd	0/3	GLTFDDYHMH	GISWNSGSIGYADSVL	VGRGGGYFDY
nd	0/3	GFTFDDYAMH	GISWNSLSIGYANSVK	VGRGGGYFFY
4.72	1/3	GFTFDDYAEH	GISWNSGSIGYADSVK	FGRGGGYFDY
5.11	3/3	GPTFDDYAFH	GISRNSGSIGYADSVK	VGRGGGYFDY
nd	0/3	GFTFDDYAMH	GISWNSGSIGYADSVK	VGIQGGYFIY
nd	0/3	GFTFDTYAGH	GISWNSGSIGYADSVK	VGRGMGYFDY
nd	0/3	IFTFDDYAMH	GISWNSGSIFYADSVK	VGRGGGNFDY
nd	0/3	GFTFDDYAMH	GISCNSGSIGYADSRK	NGRGGGYFDY
3.99	1/3	GFTFDDVADH	GISWNSGFIGYADSVK	VGRGGGYFDY
4.75	1/3	EFTFDDYAMH	GISWNSGSIGQADSVK	VGRGVGYFDY
3.93	1/3	GFTFDDYAMM	YISWNSGSIGYADSVK	VGRGGGDFDY
nd	0/3	GFEFDDYAMH	GISWNSGSIGYADSVK	VTRGVGYFDY
2.02	3/3	GFMFDDYAMH	GISWNSKSIGYADSVK	VGRGGGYYDY
nd	0/3	GFTFDDYAMH	GIFWNSGSIGYADSVV	VGWGGGYFDY
4.51	1/3	GFTFDDYAMH	GISWNSGSIGAADPLK	VGRGGGYFDY
nd	0/3	GFTFDDYAMH	GISWNNGSIGYADYVK	VGRGSGYFDY
nd	0/3	MFTFDDYAMH	GISWNSGSIGYADSVA	VGRVGGYFDY
3.87	1/3	GNTFDDYAMH	GISWNSWSIGYAYSVK	VGRGGGYFDY
nd	0/3	GFTMDDDAMH	GISWNSGSIGYADSVK	VGRGGGYFDY
nd	0/3	GGTFDPYAMH	GASWNSGSIGYADSVK	VGRGGGYFDY
nd	0/3	GFTYDDYAMH	GISEWSGSIGYADSVK	VGRGGGYFDY
nd	0/3	GFTFDDYAMH	GISWNRGSIGYADEVK	VQRGGGYFDY
nd	0/3	GFTFDDRAMH	GISWNSGSGGYADSVK	VGKGGGYFDY
5.78	1/3	LFTFADYAMH	GFSWNSGSIGYADSVK	VGRGGGYFDY
5.87	2/3	GFCFDDYAMH	GISWNSGSIGYADSVK	TGRGGGYFDY
nd	0/3	GFTFDDYAGH	GISWNSGSIGYAVRVK	VGRGGGYFDY
4.63	2/3	GFTFDDYAMH	GISWNITSIGYADSVK	VGRQGGYFDY
nd	0/3	GFTFLDYAVE	GISWNSGSIGYADSVK	VGRGGGYFDY
3.67	1/3	GFTFDDYAMH	HISWNSGSIGYADSVI	VGRMGGYFDY
nd	0/3	GFTFCDYLMH	GISWNSGSIGYAPSVK	VGRGGGYFDY
nd	0/3	GFYFDDYAMH	GISWNVGSIGYADSCK	VGRGGGYFDY
nd	0/3	GFTFDDYALH	GISWNSGWIGYADSVK	LGRGGGYFDY
4.44	3/3	GFTFDDYAMH	GISWESGSIGYACSVK	VVRGGGYFDY
nd	0/3	GFTFDDYAMH	GISWNSGWIGYADSVK	PFRGGGYFDY
3.47	3/3	GFTFDDYAMH	GISWNAGSIGYADLVK	VGRGGGYFDY
nd	0/3	GFTFDDYAMH	GISWQSMSIGYADSVK	VMRGGGYFDY
2.72	1/3	GFTFDDYAMH	GIGWNSGSIGYADSVK	VGRGGGVFDN
nd	0/3	WFTFDDYAMH	GISWNSGSIGYADSVK	VLRGGGYWDY
5.81	1/3	GFTFDDYAMH	GISWNSGSIGYADSVK	WGYGGGYFDY
nd	0/3	WFTFDDRAMH	GRSWNSGSIGYADSVK	VGRGGGYFDY

A selection of 5 entries from above:

CDR-H1,CDR-H2,CDR-H3,"log10 Kd (nM), mean",replicates with signal
GFTFDDYAMH,GISWNSLSIGYANSVK,VGRGGGYFFY,nd,0/3
GFTFDDHAMH,GISWNYGSIGYADVVK,VGRGGGYFDY,nd,0/3
GFTFDDYAMH,GISWNSGSPGYADSVK,VGRGGVYFPY,5.11,2/3
GFRFDDYAMH,GISKNSGSNGYADSVK,VGRGGGYFDY,1.89,1/3
GFTFDDYAMH,GISANSGAIGYADSVK,VGRGSGYFDY,nd,0/3

The measurements come from Engelhart et al. 2022 (doi:10.1038/s41597-022-01779-4) through the FLAb antibody collection.